Measurements as given in patent US8431561B2 (priority 2004, dated 2013).

Tested on: BHK cells
Assay: cobinamide uptake into mammalian cells
Details: 100 nM to 100 μM, 5 min, 37° C.
Text: Measurement of Cobinamide Uptake into Mammalian Cells. To study cobinamide uptake into mammalian cells, cobinamide was radioactively labeled with [^14C] by adding two molar equivalents of [^14C]-KCN (54 mCi/mmol, Moravek Biochemicals) to form [^14C]-dicyanocobinamide ([^57Co]-cobalamin is no longer commercially available). The binding affinity of cyanide for cobinamide is extremely high (K overall −10^22 M^−1) (Pratt, J. M. (1972) Inorganic chemistry of vitamin B12, Academic Press, London-New York), but to be sure no [^14C]-KCN remained, the pH was lowered to 6 to form HCN (pKa of KCN is 9.2), and then bubbled argon through the solution to remove any [^14C]-HCN. The specific activity of the [^14C]-dicyanocobinamide product was 104 mCi/mmol (using a molar extinction coefficient of 2.8×10^4 at 348 nm) (Ford et al., J. Inorg. Biochem. 41: 235-244, 1991).
In the uptake studies, approximately 1×10^6 baby hamster kidney (BHK) cells cultured in Dulbecco's Modified Eagles' (DME) medium containing 10% fetal bovine serum (FBS) were grown to sub-confluence in six well cluster dishes. The cells were incubated at 37° C. for 5 min with [^14C]-dicyanocobinamide at concentrations ranging from 100 nM to 100 μM. […] The cell pellet was dissolved in 500 μl of 0.1 N NaOH, and radioactivity in sample aliquots was measured by liquid scintillation counting. […]

dicyanocobinamide
radioactivity in BHK cells (uptake): progressive curve-linear increase in radioactivity

Some compounds may have been tested in ways that are not shown here.
